Measured values taken from patent US20240261425A1, “CONJUGATE AND THE PREPARING METHOD AND USE THEREOF” (Nanjing University, priority 2021, published 2024).

Legend:
[1] = target: T1, sfGFP E124C (Aequorea victoria, UniProt P42212, A206V/E124C/F64L/F99S/I171V/M153T/N105T/Q80R/S30R/S65T/V163A/Y145F/Y39N); set-up: His6 (HHHHHH after a GGGGLE linker) (C); conditions: sfGFP E124C (320 μM, 5 μL), Michael acceptor (6.4 μL, 5 mM), PBS pH 8, 37° C., 2 h
Source text: Michael acceptors are common reagents for an addition reaction with a cysteine on an antibody. A new Michael acceptor was been investigated so that they may react efficiently and chemo-selectively with cysteine on antibodies. And no degradation occurred in the serum after the modification of the Michael acceptor with the antibody. Based on this, a candidate Michael acceptor was used as a reaction reagent with a green fluorescent protein which is regarded as a template protein to screen the Michael acceptor. Taking the reactivity, chemo-selectivity, and stability into consideration, it was screened out the Michael acceptor which was capable of reacting with a cysteine efficiently.

[2] = target: T1, sfGFP E124C; set-up: His6 (HHHHHH after a GGGGLE linker) (C); conditions: compared with alkenyl sulfonic acid amide, alkynyl phosphate, maleimide (5), carbonyl acrylic amide (4)

| SMILES | Addition number [1] | Conversion (%) [1] | reactivity [2] |
| --- | --- | --- | --- |
| CN1C(=O)C=CC1=O [MA 5, reference compound] | 0 | 0% | – |
| O=S(=O)(F)/C=C/c1ccccc1 [Michael acceptor 1] | 2 | >99% | moderate |
